# Read-outs that look alike come from different tables or passages of the source.
# Test: Single dose pharmacokinetics study, oral and intravenous, blood and urine
# Settings: ICR (CD-1 IGS), in vivo, mouse; for Cmax: blood, read-out: Co/Cmax
smiles,measurement,setting,value
"C[C@H]1COc2c(N3CCN(C)CC3)c(F)cc3c(=O)c(C(=O)O)cn1c23 [Levofloxacin, levofloxacin]",Cmax,"PO, 20.0 mg/kg, Mean",8.16 µM
same,Cmax,"iv, 5.0 mg/kg, Composite Mean",10.8 µM
same,Bioavailability (%) Using AUCinf,"po, 20 mg/kg",40.7%
same,CL_F,"po, 20 mg/kg",65.4 mL/min/kg
same,Clast,"po, 20 mg/kg",115 ng/mL

# Source: patent US20210261570A1, “ANTIBIOTIC RESISTANCE BREAKERS” (KING'S COLLEGE LONDON, priority 2017, published 2021)
